Paper PMC7493962, “Structure-based inhibitors targeting the alpha-helical domain of the Spiroplasma melliferum histone-like HU protein” (Scientific Reports, 2020)

By UniProt entry, the sequences of proteins in these tests, tags left out. Where a name states a change or a piece, a line headed by the entry shows the natural chain unless it says otherwise.
UniProt P0ACF0: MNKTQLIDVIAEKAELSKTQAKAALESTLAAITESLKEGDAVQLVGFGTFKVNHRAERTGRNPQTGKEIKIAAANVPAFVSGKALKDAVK

Tests used:
[1] = target: T1, HUEc (HUα-homodimer from E. coli) (Escherichia coli, UniProt P0ACF0)
T1 construct: made in house

[2] = Solubility (stated in words); type: physicochemical; conditions: water

Row | Compound | IC50 ([1]; EMSA with DS24a; average ± SD from three runs; read-out: IC50, inhibition of HUEc DNA-binding) | Solubility [2] | IC50 ([1]; read-out: IC50, inhibition of HUEc DNA-binding; EMSA with DS24a; average ± SD from three runs)
1 | 4,5'-[4,4'-(9H-fluorene-9,9-diyl)bis(4,1-phenylene)]-bis(oxy)-bis(oxomethylene)-bis[2-(m-tolylcarbamoyl)-benzoic acid] [BDF5] | 7.5 ± 0.9 µM | limited solubility | 
2 | O=C(Oc1ccc(C2(c3ccc(OC(=O)c4ccc(C(=O)O)c(C(=O)O)c4)cc3)c3ccccc3-c3ccccc32)cc1)c1ccc(C(=O)O)c(C(=O)O)c1 [BDF4, 4,4'-[4,4'-(9H-fluorene-9,9-diyl)-bis(4,1-phenylene)]-bis(oxy)-bis(oxomethylene)diphthalic acid] |  |  | 7.5 ± 1 µM

Like-named read-outs stand apart in the source and are kept apart here.
